Laboratory results reported in PubChem BioAssay AID1508611 (The Scripps Research Institute Molecular Screening Center, 2020).
This is a selection; strong and weak results do not stand in their true shares. Activity calls are given as the source filed them.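 Rule for the calls: active = mean percent activation in the counterscreen above 29.09%; inactive = the rest.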

Chains of the proteins cited; added tags and fusions are not shown. Lines headed by an entry give the natural chain unless they say otherwise; changes in a name come on top.
UniProt Q8TDV5: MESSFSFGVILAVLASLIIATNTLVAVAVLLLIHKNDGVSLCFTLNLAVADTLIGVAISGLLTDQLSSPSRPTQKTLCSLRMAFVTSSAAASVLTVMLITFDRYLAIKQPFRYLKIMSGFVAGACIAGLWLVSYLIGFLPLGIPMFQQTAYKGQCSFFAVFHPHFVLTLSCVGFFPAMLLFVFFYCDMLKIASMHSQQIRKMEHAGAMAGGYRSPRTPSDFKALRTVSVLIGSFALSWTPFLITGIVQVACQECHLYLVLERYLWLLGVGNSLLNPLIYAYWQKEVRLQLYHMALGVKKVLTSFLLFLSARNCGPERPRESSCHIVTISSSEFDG

molecular target: Glucose-dependent insulinotropic receptor (Homo sapiens) (UniProt Q8TDV5); assay: off-target GPR119 activation – cell-based, PathHunter beta-arrestin, luminescence, triplicate, counter-screen for GPR151 activator project (AID 1508611); conditions: GPR119 PathHunter beta-arrestin cells, 90 min, at 11.2 µM, hits give high values, 0 = compound-well median, 100 = enzyme-acceptor control

| Structure (SMILES) | activation |
| --- | --- |
| O=C(Nc1cccc(F)c1)N(Cc1cccnc1)C1CCN(CCc2cccs2)CC1 | inactive: -6.5% |
| Cc1cc(Br)c(Nc2c([N+](=O)[O-])cc([N+](=O)[O-])c3nonc23)cc1[N+](=O)[O-] | inactive: -15.2% |
